For the assay, the target named is hCA XII (Homo sapiens, UniProt O43570). The assay is described as follows: CA catalysed CO2 hydration stopped-flow inhibition assay, hCA XII. Conditions: read-out: Ki hCA XII, 6 h preincubation, mean of three assays.

Amino acid sequences for entries named in this document (tags omitted). Residues count along the entry.
UniProt O43570, 25-354 limits assumed: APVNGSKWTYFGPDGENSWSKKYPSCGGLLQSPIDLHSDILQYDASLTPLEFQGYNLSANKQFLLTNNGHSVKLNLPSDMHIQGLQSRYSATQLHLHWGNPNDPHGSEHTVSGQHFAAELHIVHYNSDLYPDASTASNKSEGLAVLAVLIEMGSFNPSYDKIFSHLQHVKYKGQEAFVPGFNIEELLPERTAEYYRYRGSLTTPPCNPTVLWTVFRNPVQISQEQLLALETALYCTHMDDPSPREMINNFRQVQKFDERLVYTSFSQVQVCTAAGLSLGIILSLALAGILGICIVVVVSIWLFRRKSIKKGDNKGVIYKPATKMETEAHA

Each structure is given as a SMILES string.

`CC1(C)O[C@@H]1COc1c2occc2cc2ccc(=O)oc12` [Compound 8, heraclenin]: the Ki was found to be 836 nM.

What is called Ki is a measure of affinity in units of concentration, obtained from inhibition or displacement.

Values taken from article PMC7006766, “Coumarins from Magydaris pastinacea as inhibitors of the tumour-associated carbonic anhydrases IX and XII: isolation, biological studies and in silico evaluation” (Journal of Enzyme Inhibition and Medicinal Chemistry, 2020).
